Results taken from patent publication US7326707B2, “Bicyclic melanocortin-specific compounds” (Palatin Technologies Incorporated, priority 2001, dated 2008).

Sequences of proteins named here, by UniProt entry; tags and fusion partners are left off.
UniProt P33032, whole entry: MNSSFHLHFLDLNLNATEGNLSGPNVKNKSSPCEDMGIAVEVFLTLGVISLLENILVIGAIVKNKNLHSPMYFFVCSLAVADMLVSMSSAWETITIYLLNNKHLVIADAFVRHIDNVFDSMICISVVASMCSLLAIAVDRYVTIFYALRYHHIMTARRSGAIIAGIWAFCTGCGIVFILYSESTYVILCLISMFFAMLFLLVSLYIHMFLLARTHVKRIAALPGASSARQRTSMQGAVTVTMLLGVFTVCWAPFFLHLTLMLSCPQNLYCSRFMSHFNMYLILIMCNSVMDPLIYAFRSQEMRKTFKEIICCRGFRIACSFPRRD
UniProt Q01727, whole entry: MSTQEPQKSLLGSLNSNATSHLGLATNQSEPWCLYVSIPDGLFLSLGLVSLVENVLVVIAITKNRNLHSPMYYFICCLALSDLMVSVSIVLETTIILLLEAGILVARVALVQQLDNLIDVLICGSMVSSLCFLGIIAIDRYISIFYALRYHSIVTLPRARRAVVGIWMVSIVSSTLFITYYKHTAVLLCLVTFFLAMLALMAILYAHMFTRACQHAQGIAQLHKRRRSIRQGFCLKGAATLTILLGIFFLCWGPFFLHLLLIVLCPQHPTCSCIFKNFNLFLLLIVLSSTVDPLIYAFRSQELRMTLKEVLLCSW
UniProt P41968, whole entry: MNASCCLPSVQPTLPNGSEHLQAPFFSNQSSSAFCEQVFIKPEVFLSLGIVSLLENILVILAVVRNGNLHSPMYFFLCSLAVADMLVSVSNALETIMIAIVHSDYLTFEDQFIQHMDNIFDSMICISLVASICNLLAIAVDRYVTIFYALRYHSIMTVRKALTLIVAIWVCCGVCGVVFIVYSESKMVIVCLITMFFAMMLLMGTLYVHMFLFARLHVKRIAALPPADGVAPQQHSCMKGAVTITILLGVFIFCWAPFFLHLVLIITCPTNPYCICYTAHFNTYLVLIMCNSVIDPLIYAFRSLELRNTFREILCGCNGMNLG

Tests used:
[1] = biological target: hMC5-R (Homo sapiens, UniProt P33032); experiment: Competitive inhibition binding assay, 125I-NDP-α-MSH, MC5-R; details: 1 μM compound; inhibition of 125I-NDP-α-MSH binding; mean of triplicates; results less than 0% reported as 0%
[2] = test system: Male Sprague-Dawley rats; experiment: ICV food intake and body weight change; details: 1 nmol dose
[3] = biological target: MC1-R (B-16 mouse melanoma cells) (Mus musculus, UniProt Q01727); experiment: cAMP assay for agonist/antagonist status, MC1-R; details: cAMP assay as in Example 5
[4] = biological target: MC3-R (HEK-293 cells expressing MC3-R) (Homo sapiens, UniProt P41968); experiment: Ki determination by the method of Example 4, MC3-R; details: read-out: Ki (nM) MC3-R

In the case of `NCCCC[C@H]1C(=O)N2C(CC[C@@H]2COc2ccc3ccccc3c2)N1C(=O)[C@@H](Cc1ccccc1)NC(=O)[C@@H](N)Cc1cnc[nH]1` (some centres unmarked), the “Inhibition at 1 μM MC5-R” value [1] is reported as 0%.

`N=C(N)NCCC[C@H]1C(=O)N2C(CC[C@@H]2COc2ccc3ccccc3c2)N1C(=O)[C@@H](Cc1ccc(Cl)cc1Cl)NC(=O)[C@@H]1Cc2ccccc2CN1` (some centres unmarked) was tested, and the “24 hour change in food intake” value [2] was -5.4 g and the change in weight ([2]; 24 hour) was -1.6 g.

For `N=C(N)NCCC[C@H]1C(=O)N2C(CC[C@@H]2COc2ccc3ccccc3c2)N1C(=O)[C@@H](Cc1ccccc1)NC(=O)[C@@H](N)Cc1cnc[nH]1` (some centres unmarked), the “agonist/antagonist status as to MC1-R” value [3] was “full agonist” and the Ki [4] was 963 nM.
